Measurements from patent US20150258192A1, “COMPOSITIONS AND METHODS FOR PREVENTING OR TREATING CHRONIC LUNG ALLOGRAFT DYSFUNCTION (CLAD) AND IDIOPATHIC PULMONARY FIBROSIS (IPF)” (priority 2014, published 2015).

Experiments:
Assay in all cases: Kinase Profiling Assay
Format in all cases: biochemical
Details in all cases: peptide 100 μM
CDK3/cyclinE(h) = CDK3/cyclinE(h) (Homo sapiens, UniProt Q00526)
Summary of the method: (§1)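 Activity remaining relative to an uninhibited control was determined by scintillation counting of labeled substrate bound to a negatively charged filter. Radiolabeled phosphate came from ATP; the substrate carried positive charge. Duplicate measurements, within a 266-kinase human panel.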

EphA3(h) = biological target: T1, EphA3(h) (Homo sapiens, UniProt P29320)
T1 sequence (P29320 21-983): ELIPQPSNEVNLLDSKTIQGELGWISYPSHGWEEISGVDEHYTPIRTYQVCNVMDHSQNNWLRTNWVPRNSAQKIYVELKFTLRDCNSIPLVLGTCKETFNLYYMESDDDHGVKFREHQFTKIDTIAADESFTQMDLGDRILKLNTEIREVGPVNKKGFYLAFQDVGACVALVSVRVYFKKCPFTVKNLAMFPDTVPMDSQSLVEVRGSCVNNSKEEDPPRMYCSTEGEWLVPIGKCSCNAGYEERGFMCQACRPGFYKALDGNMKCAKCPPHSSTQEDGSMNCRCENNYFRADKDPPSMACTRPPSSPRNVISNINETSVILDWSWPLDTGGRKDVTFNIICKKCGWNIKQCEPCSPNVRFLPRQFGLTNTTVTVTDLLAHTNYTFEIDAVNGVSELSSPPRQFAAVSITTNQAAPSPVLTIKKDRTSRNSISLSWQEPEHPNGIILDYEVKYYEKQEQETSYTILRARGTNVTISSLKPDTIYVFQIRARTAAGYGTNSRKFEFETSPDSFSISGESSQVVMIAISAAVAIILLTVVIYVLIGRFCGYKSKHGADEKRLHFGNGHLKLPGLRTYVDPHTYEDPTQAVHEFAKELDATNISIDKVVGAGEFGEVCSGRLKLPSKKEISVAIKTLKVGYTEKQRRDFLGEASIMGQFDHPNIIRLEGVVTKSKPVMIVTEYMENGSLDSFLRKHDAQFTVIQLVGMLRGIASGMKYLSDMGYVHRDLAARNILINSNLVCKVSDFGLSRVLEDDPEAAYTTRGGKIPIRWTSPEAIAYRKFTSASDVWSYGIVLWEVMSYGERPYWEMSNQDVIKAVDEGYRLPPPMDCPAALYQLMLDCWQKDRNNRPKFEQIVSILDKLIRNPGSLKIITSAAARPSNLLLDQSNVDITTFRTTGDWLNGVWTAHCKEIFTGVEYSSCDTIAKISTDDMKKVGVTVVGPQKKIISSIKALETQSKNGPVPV
Summary of the method: as §1

FGFR2(N549H)(h) = FGFR2(N549H)(h) (Homo sapiens, UniProt P21802, N549H)
Summary of the method: as §1

MEK1(h) = biological target: T2, MEK1(h) (Homo sapiens, UniProt Q02750)
T2 construct: purchased Millipore
Summary of the method: as §1

MARK1(h) = biological target: T3, MARK1(h) (Homo sapiens, UniProt Q9P0L2)
T3 construct: purchased Millipore
Summary of the method: as §1

Abl(h) = Abl(h) (Homo sapiens, UniProt P00519)
Summary of the method: as §1

PKBγ(h) = PKBγ(h) (Homo sapiens, UniProt Q9Y243)
Summary of the method: as §1

Hck(h) = biological target: T4, Hck(h) (Homo sapiens, UniProt P08631)
T4 construct: purchased Millipore
Summary of the method: as §1

eEF-2K(h) = eEF-2K(h) (Homo sapiens, UniProt O00418)
Summary of the method: as §1

Snk(h) = biological target: T5, Snk(h) (Homo sapiens, UniProt Q9NYY3)
T5 construct: purchased Millipore
Summary of the method: as §1

CHK2(h) = CHK2(h) (Homo sapiens, UniProt O96017)
Summary of the method: as §1

SIK(h) = biological target: T6, SIK(h) (Homo sapiens, UniProt P57059)
T6 construct: purchased Millipore
Summary of the method: as §1

Abl(Q252H)(h) = Abl(Q252H)(h) (Homo sapiens, UniProt P00519, Q252H)
Summary of the method: as §1

CDK2/cyclinE(h) = CDK2/cyclinE(h) (Homo sapiens, UniProt P24941)
Summary of the method: as §1

PKCη(h) = PKCη(h) (Homo sapiens, UniProt P24723)
Summary of the method: as §1

PAR-1Bα(h) = biological target: T7, PAR-1Bα(h) (Homo sapiens, UniProt Q7KZI7)
T7 sequence (Q7KZI7 1-725 isoform Q7KZI7-4): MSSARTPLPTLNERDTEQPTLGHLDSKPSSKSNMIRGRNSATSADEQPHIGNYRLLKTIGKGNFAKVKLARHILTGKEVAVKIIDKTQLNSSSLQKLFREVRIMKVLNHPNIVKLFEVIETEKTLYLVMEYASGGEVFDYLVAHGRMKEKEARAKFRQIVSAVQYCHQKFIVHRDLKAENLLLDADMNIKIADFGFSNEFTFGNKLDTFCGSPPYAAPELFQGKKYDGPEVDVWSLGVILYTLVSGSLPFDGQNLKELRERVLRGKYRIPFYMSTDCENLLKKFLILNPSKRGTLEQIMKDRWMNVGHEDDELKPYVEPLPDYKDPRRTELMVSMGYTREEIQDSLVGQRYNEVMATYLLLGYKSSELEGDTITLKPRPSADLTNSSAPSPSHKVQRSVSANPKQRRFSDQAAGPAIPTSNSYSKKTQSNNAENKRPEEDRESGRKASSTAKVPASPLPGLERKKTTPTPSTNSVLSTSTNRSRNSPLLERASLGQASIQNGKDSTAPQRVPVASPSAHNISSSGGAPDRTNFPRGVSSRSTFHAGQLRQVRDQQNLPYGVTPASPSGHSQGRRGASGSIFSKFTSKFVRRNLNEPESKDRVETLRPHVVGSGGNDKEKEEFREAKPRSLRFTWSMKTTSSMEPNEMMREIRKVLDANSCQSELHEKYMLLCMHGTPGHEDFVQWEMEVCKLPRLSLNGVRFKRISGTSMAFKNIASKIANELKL
Summary of the method: as §1

PKA(h) = PKA(h) (Homo sapiens, UniProt P17612)
Summary of the method: as §1

| Compound | % activity (CDK3/cyclinE(h)) [%] | % activity (EphA3(h)) [%] | % activity (FGFR2(N549H)(h)) [%] | % activity (MEK1(h)) [%] | % activity (MARK1(h)) [%] | % activity (Abl(h)) [%] | % activity (PKBγ(h)) [%] | % activity (Hck(h)) [%] | % activity (eEF-2K(h)) [%] | % activity (Snk(h)) [%] | % activity (CHK2(h)) [%] | % activity (SIK(h)) [%] | % activity (Abl(Q252H)(h)) [%] | % activity (CDK2/cyclinE(h)) [%] | % activity (PKCη(h)) [%] | % activity (PAR-1Bα(h)) [%] | % activity (PKA(h)) [%] |
| --- | --- | --- | --- | --- | --- | --- | --- | --- | --- | --- | --- | --- | --- | --- | --- | --- | --- |
| YARAAARQARAKALNRQLGVA (Mammal) [MMI-0200] | 104 | 117 | 104 | 116 | 102 | 107 | 103 | 107 | 136 | 109 | 105 | 102 | 107 | 112 | – | – | – |
| FAKLAARLYRKALARQLGVAA [MMI-0300] | – | – | 116 | – | – | – | – | – | – | 114 | – | – | – | – | 103 | 113 | 119 |
| CC(C)C[C@H](NC(=O)[C@H](C)NC(=O)[C@H](CCCCN)NC(=O)[C@H](C)NC(=O)[C@H](CCCNC(=N)N)NC(=O)[C@H](C)NC(=O)[C@H](CCC(N)=O)NC(=O)[C@H](CCCNC(=N)N)NC(=O)[C@H](C)NC(=O)[C@H](C)NC(=O)[C@H](C)NC(=O)[C@H](CCCNC(=N)N)NC(=O)[C@H](C)NC(=O)[C@@H](N)Cc1ccc(O)cc1)C(=O)N[C@@H](C)C(=O)N[C@@H](CCCNC(=N)N)C(=O)N[C@@H](CCC(N)=O)C(=O)N[C@@H](CC(C)C)C(=O)NCC(=O)N[C@H](C(=O)N[C@@H](C)C(=O)N[C@@H](C)C(=O)O)C(C)C [MMI-0100] | 106 | 107 | – | 86 | 109 | 136 | 105 | 354 | 113 | – | 104 | 113 | 105 | 106 | 105 | 62 | 138 |
